Molecular target: Fatty acid-binding protein 5 (Homo sapiens, UniProt Q01469)
Conditions: 100 uM

Amino acid sequences for entries named in this document (tags omitted).
UniProt Q01469, whole entry: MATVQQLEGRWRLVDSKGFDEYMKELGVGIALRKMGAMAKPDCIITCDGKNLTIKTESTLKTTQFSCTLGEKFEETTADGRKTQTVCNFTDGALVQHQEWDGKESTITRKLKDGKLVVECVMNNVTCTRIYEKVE

An inhibition of 48% was found for `COc1c(-c2ccnn2C)cc(S(=O)(=O)Nc2ccc(F)c(C(=O)O)c2)c2ccccc12` in this work.
An inhibition of 27% was found for `COc1c(-c2cncnc2)cc(S(=O)(=O)Nc2ccc(F)c(C(=O)O)c2)c2ccccc12` in this work.
